# Results from US8426138B2 (priority 2006, dated 2013).
# Chains of the proteins cited; added tags and fusions are not shown.
# UniProt P37288, whole entry: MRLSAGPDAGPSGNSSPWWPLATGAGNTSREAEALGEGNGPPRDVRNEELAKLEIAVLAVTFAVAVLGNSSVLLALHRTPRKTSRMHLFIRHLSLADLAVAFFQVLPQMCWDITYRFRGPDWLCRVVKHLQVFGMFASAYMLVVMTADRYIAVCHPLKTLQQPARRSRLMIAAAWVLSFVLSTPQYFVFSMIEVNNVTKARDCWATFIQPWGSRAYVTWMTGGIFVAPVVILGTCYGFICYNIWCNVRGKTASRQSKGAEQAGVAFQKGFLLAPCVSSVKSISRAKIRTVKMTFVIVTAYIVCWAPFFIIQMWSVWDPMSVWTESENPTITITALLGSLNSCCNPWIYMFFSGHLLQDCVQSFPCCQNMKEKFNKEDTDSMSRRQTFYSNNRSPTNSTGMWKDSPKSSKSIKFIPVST
# Target: Arginine-vasopressin receptor 1a (AVPR1a) (Homo sapiens, UniProt P37288)
# Details: 2 hr
# Description: Plasmids. […] Other FYVE domains were generated similarly by RT-PCR^˜. […] To generate a β2AR-eYFP-α construct, the eYFP-α fragment was subcloned into the β2AR-ωplasmid using Xhol and HindIII. The Angiotensin receptor 1a was derived by RT-PCR from C57/BI6 mouse brain RNA using primers for the entire coding sequence, minus the stop codon; it was cloned N-terminally to eYFP-α or ω with MfeI and XhoI. […] Finally, to generate fusion proteins with β-arrestin, the full coding sequence of human β-arrestin B2 was PCR amplified from a cDNA clone and inserted into the Mfel-XhoI sites of the ω and eYFP-α vectors.
# Assays and cell preparation. […] LysoTracker Red and Texas Red-labeled transferrin were purchased from Molecular Probes. The Kinase/Phosphatase Inhibitor Library was purchased from BIOMOL, and the Mechanistic and Diversity Compound Libraries were provided by the Developmental Therapeutics Program of the National Cancer Institute. Cells were plated and grown to confluency in 96-well white tissue culture dishes (Corning Costar), in 100 μl of growth media. Dose-response curves were generated by adding the respective ligand to the media and incubating for 2 h at 37° C. […]
smiles,measurement,value
"NC(=O)CC[C@@H]1NC(=O)[C@H](Cc2ccccc2)NC(=O)[C@H](Cc2ccc(O)cc2)NC(=O)[C@@H](N)CSSC[C@@H](C(=O)N2CCC[C@H]2C(=O)N[C@@H](CCCN=C(N)N)C(=O)NCC(N)=O)NC(=O)[C@H](CC(N)=O)NC1=O [vasopressin, [Arg^8]-vasopressin]","induction, arrestin assay",approximately 9 fold
